Data: PubChem BioAssay AID1159550 (Chen Lab, School of Medicine, Emory University, 2015)
The entries are a selection whose mix differs from that of the whole data set. Active and inactive are the calls of the source.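 Rule for the calls: active = at least 20% inhibition of 6-phosphogluconate dehydrogenase activity; inactive = the rest.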

Sequences of proteins named here, by UniProt entry; tags and fusion partners are left off.
UniProt P52209, whole entry: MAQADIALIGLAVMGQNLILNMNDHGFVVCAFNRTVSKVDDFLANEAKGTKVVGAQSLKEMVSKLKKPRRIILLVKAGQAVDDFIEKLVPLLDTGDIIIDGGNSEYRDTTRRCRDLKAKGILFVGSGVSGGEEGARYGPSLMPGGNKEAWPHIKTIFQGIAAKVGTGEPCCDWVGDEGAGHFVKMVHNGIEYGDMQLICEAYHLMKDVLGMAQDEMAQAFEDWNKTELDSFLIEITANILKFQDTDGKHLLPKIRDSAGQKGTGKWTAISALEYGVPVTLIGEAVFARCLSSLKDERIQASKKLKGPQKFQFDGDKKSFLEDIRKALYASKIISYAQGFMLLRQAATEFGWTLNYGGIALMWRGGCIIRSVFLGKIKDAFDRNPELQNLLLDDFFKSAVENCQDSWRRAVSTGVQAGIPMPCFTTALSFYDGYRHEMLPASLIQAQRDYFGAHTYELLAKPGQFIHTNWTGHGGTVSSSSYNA

These compounds were tested against 6-phosphogluconate dehydrogenase, decarboxylating (Homo sapiens) (UniProt P52209) (assay: 6PGD enzyme inhibitors, primary screen, biochemical, human, recombinant enzyme, NADPH absorbance (AID 1159550)). Settings: recombinant 6PGD, NADPH absorbance 341 nm; at 10 µM; stronger effect = higher value.

Compound	inhibition
CCN(CCCl)Cc1ccccc1C	inactive: -4.89%
OCCSCCO	inactive: -8.85%
